PDI inh – inhibitors of human protein disulfide isomerase | P07237 | PDI insulin aggregation turbidity, A650, 90 min | inhibition, % at 10 µM | 350,000 tested, 0.052% active | AID 588391;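 active = mean inhibition across replicates of 30% or more, whatever share of single replicates reach that level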
UUG fidelity – modulators of start codon recognition fidelity in yeast; S. cerevisiae UUG-firefly luciferase reporter, luminescence/redox ratio; activity score, % at 18.7 µM; hit rate 0.13% among 350,000; AID 602363;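 active = replicate mean at a twofold rise or more, about +100% in these data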;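 note: firefly luciferase made from a UUG start codon reports start codon fidelity; reporter light over untreated wells divided by growth signal over untreated wells; some hits fall short of that in this replicate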
ARNT TACC3 PPI – disrupts binding between human ARNT and TACC3; AlphaScreen His-ARNT PAS-B/GST-TACC3 binding, luminescence; TACC3 fragment carries E629A point mutation; Q9Y6A5; AID 623870; 390,000 tested, 0.66% active; inhibition, % at 9.99 µM;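 active = mean inhibition of replicates at least 50% and at least half of replicates each reaching 50%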;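 also: 0% = complete ARNT plus TACC3 wells and 100% = ARNT alone without TACC3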
ERp5 inh – blocks human ERp5 reductase activity on insulin; inhibition, % at 9.99 µM; 350,000 tested, 0.05% active; AID 651711; ERp5 insulin aggregation, absorbance 650 nm, 90 min; Q15084;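 active = mean replicate inhibition above about 25%, with every replicate also reaching it, limit read from the data, passing the limit was not always enough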
FGF22 binding – FGF22 (human) thermal shift binding; AID 651658; Q9HCT0; activity (Tm shift, normalised), % at 9.99 µM; recombinant FGF22 thermal shift, SYPRO orange fluorescence; percent of sucrose octasulfate shift, DMSO zero; 340,000 tested, 1.5% active;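 active = mean Tm shift, scaled 0 neutral to 100 positive control, at about 1.3% or above, every replicate too, limit read from the data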
PglD DTNB – PglD (C. jejuni) enzyme inhibition; purified PglD enzyme, DTNB colorimetric CoA detection; inhibition, % at 12.5 µM; 360,000 tested, 0.098% active; AID 602405; in the data active = inhibition above about 16%, passing the limit was not always enough
* = called active by the depositor; / = no result. Hits are enriched below; roughly 1.9% of the tested compounds scored in any of these assays.

SMILES	PDI inh	UUG fidelity	ARNT TACC3 PPI	ERp5 inh	FGF22 binding	PglD DTNB
O=C(CN1CCOCC1)N1CC(=O)N2[C@H](C1)[C@H](c1ccc(C3=CCCCC3)cc1)[C@@H]2CO	/	/	/	18	0	/
N/C(=N\OC(=O)c1ccc2ccccc2c1)c1ccccn1	0	-76	/	0	45*	-2
N/C(=N\OC(=O)c1ccco1)c1ccccn1	-4	-39	11	-1	43*	4
N/C(=N\OC(=O)c1ccco1)c1ccccc1	-4	-12	1	/	/	-3
N/C(=N\OC(=O)c1ccc(=O)n(Cc2ccccc2)c1)c1ccccn1	-6	-9	-17	7	43*	1
O=C(Oc1cccc2cccnc12)c1ccc(Br)o1	6	-14	7	/	/	3
O=C(Oc1cccc2cccnc12)c1ccco1	-3	-7	54*	/	/	3
O=C(Nc1ccc2c(c1)[C@H]1C[C@@H](CC(=O)N3CCOCC3)O[C@H](CO)[C@H]1O2)c1ccc2c(c1)OCO2	/	31	-3	/	0	2
COCC#Cc1cnc2c(c1)C(=O)N([C@@H](C)CO)C[C@@H](C)[C@@H](CN(C)C(=O)Cc1ccncc1)O2	/	4	1	-8	0	1
C[C@@H]1CN([C@@H](C)CO)C(=O)c2cc(NC(=O)CCN3CCOCC3)ccc2O[C@@H]1CN(C)Cc1ccc(C(=O)Nc2ccccc2N)cc1	/	/	/	9	1	/
N/C(=N\OC(=O)c1cc(Br)ccc1Cl)c1ccccn1	-15	/	-11	-4	43*	/
Cc1ccc(C(=O)O/N=C(\N)c2ccccn2)c(Cl)c1	-5	-96	-7	2	0	-20
CCOc1ncccc1C(=O)Nc1nnc(C)s1	-9	/	0	5	0	/
CCOc1ncccc1C(=O)Nc1nnc(C2CC2)s1	3	/	-6	1	44*	/
O=C(CCS(=O)(=O)c1ccccc1)Nc1nc(-c2ccccn2)cs1	/	-27	65*	6	0	-2
O=C(CCS(=O)(=O)c1ccccc1)Nc1ccc(S(=O)(=O)Nc2nccs2)cc1	3	/	-11	0	43*	/
Cc1ccc(S(=O)(=O)CCC(=O)Nc2nc(-c3ccncc3)cs2)cc1	2	-4	-3	4	0	-1
O=C(CCS(=O)(=O)c1ccccc1)Nc1ccc(-c2nc3ccccc3s2)cc1	8	/	-51	-1	44*	/
O=C(CCc1ccccc1)Nc1ccc(S(=O)(=O)Nc2nccs2)cc1	2	-4	22	2	0	-2
O=C(CCS(=O)(=O)c1ccc(F)cc1)Nc1nc(-c2ccccn2)cs1	-3	-36	60*	2	0	-4
O=C(CCS(=O)(=O)c1ccccc1)Nc1ccccn1	-6	-19	-9	1	0	-3
COc1ccc(CN(C)C[C@@H]2Oc3ccc(NS(=O)(=O)c4ccccc4)cc3CC(=O)N([C@H](C)CO)C[C@H]2C)cc1	/	9	21	-2	0	5
C[C@H]1CN([C@@H](C)CO)C(=O)c2cccc(NS(=O)(=O)c3ccccc3)c2O[C@H]1CN(C)Cc1ccc(Oc2ccccc2)cc1	/	-1	2	2	0	0
CO[C@H]1CN(C)C(=O)c2cc(NS(=O)(=O)c3ccccc3C)ccc2OC[C@H](C)NC[C@H]1C	/	-13	-11	0	0	1
C[C@@H]1CN([C@H](C)CO)C(=O)Cc2cc(NC(=O)Nc3cccc4ccccc34)ccc2O[C@H]1CN(C)Cc1ccc(C(F)(F)F)cc1	/	-4	-2	21	0	-1

Other records.
SMILES	PDI inh	UUG fidelity	ARNT TACC3 PPI	ERp5 inh	FGF22 binding	PglD DTNB
C[C@H]1CN([C@@H](C)CO)C(=O)Cc2cc(NC(=O)Nc3ccc(C(F)(F)F)cc3)ccc2O[C@@H]1CN(C)Cc1ccc(Cl)c(Cl)c1	/	-12	-8	-7	0	0
C[C@H]1CN([C@@H](C)CO)C(=O)Cc2cc(NC(=O)Nc3cccc4ccccc34)ccc2O[C@@H]1CN(C)Cc1ccc(C(F)(F)F)cc1	/	1	10	3	0	-2
C[C@H](CO)N1C[C@H](C)[C@H](CN(C)Cc2ccc(C(F)(F)F)cc2)Oc2ccc(NC(=O)Nc3cccc4ccccc34)cc2CC1=O	/	-3	4	64*	0	3
C[C@@H]1CN([C@@H](C)CO)C(=O)Cc2cc(NC(=O)Nc3ccc(C(F)(F)F)cc3)ccc2O[C@@H]1CN(C)Cc1ccc(Cl)c(Cl)c1	/	2	10	50*	1	2
C[C@H]1CN([C@@H](C)CO)C(=O)Cc2cc(NC(=O)Nc3cccc4ccccc34)ccc2O[C@H]1CN(C)Cc1ccc(C(F)(F)F)cc1	/	3	4	69*	0	2
C[C@H](CO)N1C[C@H](C)[C@@H](CN(C)C(=O)Nc2ccc(C(F)(F)F)cc2)Oc2ccc(NC(=O)Cn3cnnn3)cc2CC1=O	/	86	2	1	0	18*
Cc1ccc(-c2ccc3c(c2)O[C@@H](CN(C)C(=O)CC2CC2)[C@@H](C)CN([C@H](C)CO)S3(=O)=O)cc1	/	/	1	1	-1	0
C[C@@H]1CN([C@@H](C)CO)C(=O)Cc2cc(NC(=O)C3CCCCC3)ccc2O[C@H]1CN(C)Cc1ccc2c(c1)OCO2	/	8	4	0	0	4
COc1ccc(-c2coc3cc(O)cc(O)c3c2=O)cc1	0	-29	-5	-1	2.2*	-3
COc1ccccc1C#Cc1ccc([C@H]2[C@H](CO)N3CCCCN(C(=O)C4CCCC4)C[C@@H]23)cc1	/	-12	8	-5	0	0
CC(=O)NC1=NC(=O)/C(=C/c2cc(C)n(-c3cccc(C(=O)O)c3)c2C)S1	12	/	5	1	43*	/
Cc1ccc(NC(=O)CN2C(=O)N/C(=C/c3cc(C)n(-c4cccc(C(=O)O)c4)c3C)C2=O)cc1	1	/	10	2	44*	/
CC(=O)NC1=NC(=O)/C(=C/c2cc(C)n(-c3ccc(NC(C)=O)cc3)c2C)S1	0	9	0	0	0	-4
Cc1ccc(NC(=O)CN2C(=O)N/C(=C\c3cccn3-c3cccc(C(=O)O)c3)C2=O)cc1	2	-5	/	/	/	-2
C/C=C/c1ccc2c(c1)O[C@@H](CN(C)S(=O)(=O)c1ccc(C)cc1)[C@@H](C)CN([C@H](C)CO)S2(=O)=O	/	-2	5	-1	0	-5
CN(C)C(=O)C[C@H]1C[C@@H]2c3cc(NS(=O)(=O)c4ccc(F)cc4)ccc3O[C@@H]2[C@@H](CO)O1	/	37	-4	/	0	-2
Cc1ccc(CSCC(=O)Nc2ccccc2F)cc1	9	-1	-2	-2	43*	-6
O=C(CSCc1ccc(Cl)cc1)Nc1ccc(O)cc1C(=O)O	-5	-7	46*	3	0	10
Cn1c(O)c(/C=C2\C=Nc3ccccc32)sc1=Nc1ccc(C(=O)O)cc1	54*	-24	-2	-1	0	2

5 compounds already listed, arranged by the number in UUG fidelity, rising:
canonical_smiles	UUG fidelity
COc1ccc(-c2coc3cc(O)cc(O)c3c2=O)cc1	-29
O=C(CSCc1ccc(Cl)cc1)Nc1ccc(O)cc1C(=O)O	-7
C[C@H]1CN([C@@H](C)CO)C(=O)Cc2cc(NC(=O)Nc3cccc4ccccc34)ccc2O[C@@H]1CN(C)Cc1ccc(C(F)(F)F)cc1	1
CC(=O)NC1=NC(=O)/C(=C/c2cc(C)n(-c3ccc(NC(C)=O)cc3)c2C)S1	9
C[C@H](CO)N1C[C@H](C)[C@@H](CN(C)C(=O)Nc2ccc(C(F)(F)F)cc2)Oc2ccc(NC(=O)Cn3cnnn3)cc2CC1=O	86

PglD DTNB, entries above that show a hit.
SMILES	PDI inh	UUG fidelity	ARNT TACC3 PPI	ERp5 inh	PglD DTNB
C[C@H](CO)N1C[C@H](C)[C@@H](CN(C)C(=O)Nc2ccc(C(F)(F)F)cc2)Oc2ccc(NC(=O)Cn3cnnn3)cc2CC1=O	/	86	2	1	18*

Screening data deposited in PubChem by Broad Institute.
